Binding of CDR-mutated scFvs to a peptide of the spike HR2 region

Data: MIT Lincoln Laboratory AlphaSeq set, Engelhart et al. 2022, doi:10.1038/s41597-022-01779-4, as distributed in FLAb.

Target: peptide PDVDLGDISGINAS, taken from heptad repeat 2 (HR2) of SARS-CoV-2 spike.

Ab-95 is the parent antibody, in scFv form: VH, then three GGGGS repeats, then VL. The heavy chain is unchanged in all variants.
VH: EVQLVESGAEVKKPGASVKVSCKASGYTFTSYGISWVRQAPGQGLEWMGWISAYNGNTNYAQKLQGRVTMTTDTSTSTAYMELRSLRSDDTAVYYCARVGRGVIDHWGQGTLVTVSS
VL: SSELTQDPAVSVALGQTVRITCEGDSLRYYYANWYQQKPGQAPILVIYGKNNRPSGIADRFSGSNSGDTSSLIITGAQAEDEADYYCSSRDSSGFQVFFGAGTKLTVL

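Phage display of a naive human antibody library on the peptide gave the parent. Library AAYL52 holds single substitutions and randomly drawn double and triple substitutions in the CDRs. The scFvs were displayed on barcoded MATa yeast, the peptide on MATalpha yeast. Binding brings cells together so that they mate, and sequencing counts the barcode pairs among the diploids. Scores were corrected for input abundance and mapped to Kd with protein pairs of known affinity run in the same pool. Mating was done three times.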

Positions count from residue 1 of the parent VL; Y29M puts M in place of Y. This list gathers variants with a substitution at F95 (VL, numbered from residue 1). The Kd shown is the geometric mean over detected replicates; a lower Kd is a better binder. Where no diploid with the target was found in any replicate, the entry reads "nd": below detection, most likely a poor binder, though not proof of it. In this assay the parent's reference entry averaged 200 nM; its copy inside this library read 180 nM. Background: pairings of library AAYL52 with three empty control strains gave a value in 28% of cases (median 8.2 µM, 5th percentile 800 nM). Values in that range, when seen in few replicates, are hard to tell from nonspecific mating. Also given: how often the same scFv was detected with the empty control strains.

Y29M+Y31Q+F95C: 100 nM (3 of 3 replicates; controls 1 of 9).
G24P+Y29G+F95C: 21 µM (1 of 3 replicates; controls 4 of 9).
S26V+Y31H+F95W: 3.4 µM (3 of 3 replicates; controls 5 of 9).
L27S+S55R+F95R: 810 nM (3 of 3 replicates; controls 3 of 9).
N33E+S92Q+F95M: 4.4 µM (1 of 3 replicates; controls 1 of 9).
Y30G+S55W+F95K: 52 nM (3 of 3 replicates; controls 2 of 9).
S89I+F95W+F98T: 2.7 µM (3 of 3 replicates; controls 2 of 9).
E23C+G49L+F95N: 9.9 µM (1 of 3 replicates; controls 0 of 9).
Y30Q+R90S+F95G: 3.9 nM (3 of 3 replicates; controls 8 of 9).
E23S+G94V+F95A: 3.9 µM (3 of 3 replicates; controls 3 of 9).
R90Q+F95K+Q96S: 730 nM (3 of 3 replicates; controls 4 of 9).
R28P+Y29C+F95P: 5.3 µM (1 of 3 replicates; controls 3 of 9).
Y31A+F95L: 80 nM (3 of 3 replicates; controls 2 of 9).
L27S+S93M+F95N: 8.4 µM (2 of 3 replicates; controls 2 of 9).
G24Q+D91N+F95P: 4.8 µM (2 of 3 replicates; controls 1 of 9).
G24F+R53K+F95W: 2.4 µM (3 of 3 replicates; controls 6 of 9).
E23D+K50M+F95M: 2.8 µM (3 of 3 replicates; controls 8 of 9).
N33K+F95G: 12 µM (1 of 3 replicates; controls 2 of 9).
S89P+F95H+Q96D: 5.2 µM (2 of 3 replicates; controls 4 of 9).
Y31F+S89G+F95N: 550 nM (3 of 3 replicates; controls 3 of 9).
S26Q+F95D: 11 µM (3 of 3 replicates; controls 6 of 9).
G24Q+K50L+F95Y: 120 µM (2 of 3 replicates; controls 1 of 9).
R90G+F95T: 710 nM (3 of 3 replicates; controls 2 of 9).
F95V: 230 nM (3 of 3 replicates; controls 4 of 9).
G24T+F95P: 7.0 µM (2 of 3 replicates; controls 1 of 9).
Y31R+F95H+V97K: 2.1 µM (2 of 3 replicates; controls 0 of 9).
G24D+D25W+F95C: 28 µM (1 of 3 replicates; controls 2 of 9).
R28F+A32R+F95A: 690 nM (3 of 3 replicates; controls 4 of 9).
R28V+S55D+F95V: 540 nM (3 of 3 replicates; controls 4 of 9).
P54F+F95L: 4.7 µM (3 of 3 replicates; controls 3 of 9).
N52F+S93P+F95A: 950 nM (3 of 3 replicates; controls 4 of 9).
G94R+F95Q+V97K: nd (0 of 3 replicates; controls 2 of 9).
Y31Q+G94K+F95P: nd (0 of 3 replicates; controls 0 of 9).
K50I+S89I+F95S: 5.7 µM (1 of 3 replicates; controls 2 of 9).
N51A+F95A+F98W: 120 nM (3 of 3 replicates; controls 2 of 9).
Y29C+F95V+Q96W: 9.2 µM (2 of 3 replicates; controls 5 of 9).
R53M+S89W+F95W: nd (0 of 3 replicates; controls 2 of 9).
N33D+R90T+F95P: 10 µM (3 of 3 replicates; controls 7 of 9).
N51T+R53T+F95H: 46 µM (2 of 3 replicates; controls 5 of 9).

Top 5 of the variants detected in all replicates, tightest first:

changes	Kd	replicates with signal	control signals
Y30Q+R90S+F95G	3.9 nM	3/3	8/9
Y30G+S55W+F95K	52 nM	3/3	2/9
Y31A+F95L	80 nM	3/3	2/9
Y29M+Y31Q+F95C	100 nM	3/3	1/9
N51A+F95A+F98W	120 nM	3/3	2/9